For 1 molecule, IC50 results are on record in ChEMBL document CHEMBL1141078, “Discovery of potent, nonsystemic apical sodium-codependent bile acid transporter inhibitors (Part 1)” (J Med Chem, 2005).

This experiment deals with T1, Ileal sodium/bile acid cotransporter (Homo sapiens, UniProt Q12908).
T1 sequence (Q12908 whole entry): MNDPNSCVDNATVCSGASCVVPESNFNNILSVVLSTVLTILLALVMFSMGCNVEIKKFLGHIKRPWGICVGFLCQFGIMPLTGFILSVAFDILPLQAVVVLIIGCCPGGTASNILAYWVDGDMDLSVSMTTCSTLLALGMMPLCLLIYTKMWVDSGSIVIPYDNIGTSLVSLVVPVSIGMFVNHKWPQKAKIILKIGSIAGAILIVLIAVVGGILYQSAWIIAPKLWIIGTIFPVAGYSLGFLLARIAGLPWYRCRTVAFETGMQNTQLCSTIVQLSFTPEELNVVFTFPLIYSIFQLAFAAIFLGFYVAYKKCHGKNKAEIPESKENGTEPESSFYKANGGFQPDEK
Nature of the experiment: In vitro inhibition of ASBT mediated uptake of [14C]taurocholate (5 uM) in Baby hamster cells expressing human IBAT. The format is cell-based. The method in brief:
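BHK cells stably transfected with human IBAT cDNA (H14) were seeded 24–72 h before assay at cell densities adjusted to that interval. Cells were washed, then incubated for 2 h at 37 °C in DMEM (4.5 g/L glucose, 0.2% fatty-acid-free BSA) with test compound and [14C]taurocholate. Wells were washed with cold PBS containing BSA and then with PBS alone. Cell-associated radioactivity was measured by scintillation counting, and IC50 values were derived.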

Consider `CCCC[C@]1(CC)CS(=O)(=O)c2ccc(NC(=O)OC(C)(C)C)cc2[C@@H](c2ccccc2)[C@H]1O`, for which the IC50 is 1.3 µM.
